# Only a part of the results on these compounds is given; other tests are left out.
# Experiment: Selectivity ratio of IC50 for cytotoxicity against human MES-SA cells assessed as cell growth inhibition to IC50 for cytotoxicity against multidrug resistance human MES-SA/Dx5 cells assessed as cell growth inhibition
smiles,measurement,value
Oc1c(CN(CCCl)CCCl)ccc2cccnc12,Ratio IC50,0.91
